Compound activity as filed in PubChem.
In the library only some 2.1% were active in any assay of this set; here they are far more common.
MITF TRPM1 inh: MITF TRPM1 promoter inhibition in SK-MEL-5 cells; inhibition, % at 12.5 µM; SK-MEL-5 TRPM1 promoter luciferase, 24 h; 330,000 tested, 0.83% active; AID 488899;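 active = mean inhibition across replicates of 60% or more, whatever share of single replicates reaches that level; inconclusive = some that reach 60%, reason not given; inactive = mean inhibition across replicates below 60%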
PGC1a acetyl inh: lowers PGC1a acetylation signal in U2OS cells; inhibition, % at 15.6 µM; AlphaScreen anti-acetyl-lysine; with virally co-expressed GCN5 acetyltransferase; 350,000 tested, 0.17% active;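 active = every replicate shows inhibition of at least 40%; inconclusive = mean inhibition at least 40% but some replicate below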;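 also: 0% = neutral control wells and 100% = positive control wells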
miR122 inh: miR-122 inhibition in Huh7 cells | AID 602342 | Huh7 miR-122 Renilla luciferase sensor, 48 h; neutral wells = 0, positive control = 100 | activation (reporter increase), % at 12.5 µM | 340,000 tested, 0.3% active;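 active = mean replicate activation score at least 90 and every replicate individually at or above 90; inconclusive = only one of the two criteria met; inactive = neither criterion met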;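 also: higher luciferase means less miR-122 activity so hits act as miR-122 inhibitors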
MITF TRPM1 HTS: increases MITF-driven TRPM1 promoter luciferase signal. SK-MEL-5 TRPM1-promoter luciferase, 24 h; % of positive control, neutral wells = 0. activation, % at 12.5 µM. 300,000 tested, 0.75% active. AID 588334;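 active = mean activation of at least 80% with every replicate also reaching 80%; inconclusive = mean reaches 80% but some replicate falls short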;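 also: 0% = neutral control wells and 100% = parthenolide positive control wells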
Yeast UUG start: alters start codon recognition fidelity in yeast. S. cerevisiae UUG-firefly luciferase reporter, luminescence/redox ratio. 350,000 tested, 0.13% active. activity score, % at 18.7 µM. AID 602363;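 active means replicate mean at a twofold rise or more, about +100% in these data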;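 further: firefly luciferase made from a UUG start codon reports start codon fidelity; reporter light over untreated wells divided by growth signal over untreated wells; some hits fall short of that in this replicate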
Wnt act: activators of Wnt/beta-catenin signaling. Wnt/beta-catenin reporter cell assay, activator, plate reader. activation, % at 9.35 µM. 300,000 tested, 1.2% active; in the data active = activation above about 30%, passing the limit was not always enough; inconclusive = no clear call, values can overlap the other calls;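 also: 0% = neutral control wells and 100% = positive control wells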
* hit, by the source's call; ? = inconclusive; · = no result; [ ] = remark or other dose.

SMILES	MITF TRPM1 inh	PGC1a acetyl inh	miR122 inh	MITF TRPM1 HTS	Yeast UUG start	Wnt act
Cc1ccc(NC(=O)COc2ccc3oc4c(c3c2)CCCC4)nc1	4	-1	-4	-3	-14	0
Cc1cccnc1NC(=O)COc1ccc2oc3c(c2c1)CCCC3	-34	8	1	37	4	3
Cc1ccc(OCC(=O)c2ccc3c(c2)CCCC3)cc1C	-88	-9	-7	97*	-14	6
Cc1ccc(NC(=O)COc2ccc3c(c2)CCC3)nc1	-90	-26	·	94*	-34	?
Cc1cccnc1NC(=O)COc1ccc2c(c1)CCC2	-103	18	·	100*	-27	17
O=C(COc1ccc(Br)cc1)c1ccc2c(c1)CCCC2	-10	·	·	10	-5	·
Cc1noc(C)c1NC(=O)N(C)C[C@@H]1Oc2ccc(NC(=O)NC(C)C)cc2C(=O)N([C@@H](C)CO)C[C@H]1C	·	1	21[16.7 µM]	·	-18	·
CCC(C)(C)c1ccc(OCCCC[n+]2cccc(C)c2C)c(C(C)(C)CC)c1	71*	-2	-24	·	-1	-14
O=C(CCN1CCCCC1)NCC[C@H]1CC[C@@H](NC(=O)C2CC2)[C@@H](CO)O1	·	2	·	·	-7	·
Cc1ccc2cc(/C=C/C(=O)c3ccco3)c(Cl)nc2c1	·	12	3	·	-22	60*
CCCNC(=O)[C@@H]1[C@@H](CO)[C@@H]2Cn3c(ccc(-c4ccccc4F)c3=O)[C@@H]2N1C(=O)CC	·	·	4[16.7 µM]	·	·	·
Cc1nnc(SC(C)C(=O)Nc2ncc(Cl)cc2Cl)n1Cc1ccccc1 (stereo unspecified)	1	23	-2	-3	·	·
COCCn1c(SC(C)C(=O)Nc2ncc(Cl)cc2Cl)nc2ccccc21 (stereo unspecified)	10	44*	2	-8	·	·
CCN(CC)CCNc1ncnc2c1sc1nc(N3CCOCC3)c3c(c12)CCCC3	77*	·	·	-77	·	-1
CO[C@H]1CN(C)C(=O)c2cc(NC(=O)C3CCCCC3)ccc2OC[C@H](C)N(Cc2nccs2)C[C@@H]1C	·	-13	·	·	·	·
CNC(CC(=O)c1ccc([N+](=O)[O-])cc1)C(Cl)(Cl)Cl (stereo unspecified)	90*	·	·	-90	·	·
C[C@@H](NC(=O)C[C@@H]1CC[C@H](NC(=O)C2CCOCC2)[C@@H](CO)O1)c1ccccc1	·	1	·	·	-6	·
COc1ccc(Nc2oc(COc3cccc(C)c3)nc2C#N)cc1	-24	-10	-9	21	-18	43*
Cc1noc(C)c1NC(=O)N(C)C[C@@H]1Oc2c(NC(=O)Nc3ccc(F)cc3)cccc2C(=O)N([C@@H](C)CO)C[C@H]1C	·	-2	-6[16.7 µM]	·	-7	·
O=C(COc1ccc(Br)cc1Br)NC(=O)NC1CCCC1	-108	-7	·	104*	·	12
O=C(COc1ccccc1Cl)NC(=O)NC1CCCCC1	-54	·	0	58	-1	4
O=C(COc1ccc(F)cc1Cl)NC1CCCCCC1	-78	0	2	?	-14	40*
CCc1ccc(OCC(=O)NC2CCCCC2)c(Br)c1	-97	·	·	101*	14	27
CC(=O)c1cccc(NC(=O)Nc2ccc3c(c2)CCC3)c1	-93	-8	-6	97*	6	19
Cc1cccc(NC(=O)Nc2ccc3c(c2)CCC3)c1	-83	·	·	?	-11	22
CC(=O)c1cccc(NC(=O)c2noc3c2CCc2ccccc2-3)c1	-88	8	0	?	-23	33*
CC(=O)c1cccc(NC(=O)Nc2cccnc2)c1	-6	50*	0	-1	-13	-3
CC(=O)c1cccc(NC(=O)c2ccc3c(c2)CCCC3)c1	-100	·	·	113*	-29	24
C=CCSc1nnc(-c2sc(-c3ccccc3)nc2C)n1C	-31	·	·	·	·	33*
C=CCSc1nnc(-c2nnc(SCC=C)n2-c2ccccc2)n1-c1ccccc1	11	-14	-3	-9	-9	2
CN(C)C(=O)c1ccc(-c2ccc3c(c2)[C@H]2[C@H](CCN2C(=O)c2ccccc2F)[C@H](CO)N3)cc1	·	2	12[16.7 µM]	·	-5	·
CC(=O)Nc1cccc(-n2nnc(SCC(=O)c3ccccc3)n2)c1	-39	4	6	·	·	60*
CCOC(=O)C1=C(COC(=O)c2ccc([N+](=O)[O-])s2)NC(=O)NC1C (stereo unspecified)	62*	9	-11	-61	4	-1
CCOC(=O)C1=C(COC(=O)c2cccc(N(C)C)c2)NC(=O)NC1C (stereo unspecified)	-75	0	-7	78	2	38*
Cc1c(C(=O)Nc2ccc3c(c2)CCC3)cccc1[N+](=O)[O-]	-90	·	7	92*	-7	15
O=C(Nc1ccc2c(c1)CCC2)c1ccccc1Br	-51	4	·	43	·	19
CSc1ccccc1C(=O)Nc1ccc2c(c1)CCC2	-18	-3	5	24	-9	30*
C[C@H](CO)N1C[C@H](C)[C@H](CN(C)Cc2ccc(Cl)c(Cl)c2)Oc2ccc(NS(=O)(=O)c3cccs3)cc2C1=O	·	0	-6[16.7 µM]	·	-2	·
CCCN(C)C[C@@H]1Oc2ncc(C#CCC(C)C)cc2C(=O)N([C@H](C)CO)C[C@H]1C	·	-36	-17[16.7 µM]	·	10	·
Cc1ccc(C)c(NC(=O)c2cnn3ccccc23)c1	-20	16	0	19	-8	4
Cc1ccccc1NC(=O)c1cc2ccccn2n1	-64	8	·	62	-24	59*
Cc1ccc(C)c(NC(=O)c2cc3ccccn3n2)c1	-37	-1	4	45	-22	50*
CNC[C@H]1Oc2ncc(C#CC3CCCC3)cc2C(=O)N([C@@H](C)CO)C[C@H]1C	·	9	-21[16.7 µM]	·	12	·
N#C[C@H]1[C@H](c2ccccc2-c2ccc(F)cc2)[C@@H](CO)N1C(=O)Cc1cccnc1	·	7	·	·	·	·
O=C(Nc1ccc(F)cc1)Nc1ccc2c(c1)[C@H]1C[C@H](CC(=O)N3CCOCC3)O[C@H](CO)[C@H]1O2	·	0	1[16.7 µM]	·	3	·

In the list so far, these contain an aryl thioether with sulfur outside any ring.
SMILES	MITF TRPM1 inh	PGC1a acetyl inh	miR122 inh	MITF TRPM1 HTS	Yeast UUG start	Wnt act
Cc1nnc(SC(C)C(=O)Nc2ncc(Cl)cc2Cl)n1Cc1ccccc1 (stereo unspecified)	1	23	-2	-3	·	·
COCCn1c(SC(C)C(=O)Nc2ncc(Cl)cc2Cl)nc2ccccc21 (stereo unspecified)	10	44*	2	-8	·	·
C=CCSc1nnc(-c2sc(-c3ccccc3)nc2C)n1C	-31	·	·	·	·	33*
C=CCSc1nnc(-c2nnc(SCC=C)n2-c2ccccc2)n1-c1ccccc1	11	-14	-3	-9	-9	2
CC(=O)Nc1cccc(-n2nnc(SCC(=O)c3ccccc3)n2)c1	-39	4	6	·	·	60*
CSc1ccccc1C(=O)Nc1ccc2c(c1)CCC2	-18	-3	5	24	-9	30*

(more compounds)
SMILES	MITF TRPM1 inh	PGC1a acetyl inh	miR122 inh	MITF TRPM1 HTS	Yeast UUG start	Wnt act
CCOC(=O)C(C)n1cnc2c(nnn2-c2ccc(C)cc2)c1=O (stereo unspecified)	-17	67*	·	18	-6	·
CCOC(=O)C(C)n1cnc2c(nnn2-c2ccc(OC)cc2)c1=O (stereo unspecified)	-8	-4	-11	12	-25	·
C[C@H]1CN([C@@H](C)CO)C(=O)c2cc(-c3ccncc3)cnc2O[C@@H]1CN(C)C(=O)c1ccncc1	·	13	-8[16.7 µM]	·	-17	·
N#C/C(=C\c1ccccn1)c1nc2ccccc2s1	30	3	6	-28	6	7
COc1ccc(/C(C#N)=C/c2ccccn2)cc1	-80	·	·	79	-23	33*
O=C1C2C3CCC(C3)C2C(=O)N1c1ccc(OS(=O)(=O)c2ccccc2)cc1 (stereo unspecified)	-51	-4	·	61	·	34*
COc1ccc(C(=O)Nc2cccc(NC(C)=O)c2)cc1	·	-3	0	·	-9	-1
